# Measured affinities in a library of Ab-14 heavy chain variants

Values reported by Li et al. 2023, doi:10.1038/s41467-023-39022-2 (FLAb copy).

The target is the same throughout: PDVDLGDISGINAS, from the HR2 region of SARS-CoV-2 spike.

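Phage display of a naive human antibody library on the peptide gave the parent. This is the validation round: designs drawn from the data on random variants, tested in the same kind of assay. Their group label is 14H_GPLM_Gibbs (GPLM: also part of the Gaussian process libraries; Gibbs: Gibbs sampling; a sequence that several methods proposed may carry one label only). Affinity was read by AlphaSeq, a pooled yeast mating assay with surface-displayed partners. Binding brings cells together so that they mate, and sequencing counts the barcode pairs among the diploids. The ratio of observed to expected reads was calibrated, replicate by replicate, on BCL2-family standards whose Kd was known from biolayer interferometry. Mating was done six times.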

Ab-14 is the parent antibody, in scFv form: VH, then a 15-residue (Gly4Ser)3 linker, then VL. The light chain is unchanged in all variants.
VH: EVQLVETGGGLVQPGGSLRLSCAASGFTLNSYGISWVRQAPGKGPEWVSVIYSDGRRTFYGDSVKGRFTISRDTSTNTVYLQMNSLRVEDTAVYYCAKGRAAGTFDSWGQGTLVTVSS
VL: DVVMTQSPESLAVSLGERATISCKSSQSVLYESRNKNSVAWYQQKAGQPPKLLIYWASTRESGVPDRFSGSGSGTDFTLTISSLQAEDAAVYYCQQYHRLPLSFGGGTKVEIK

Changes read parent residue, position, new residue, counted from the first residue of the VH shown. The read-out is the apparent dissociation constant on a log10 scale (nM): the lower, the stronger. Averages over replicates are reported, and they cover detected replicates only. "nd" marks a missing value. The strain was present, yet no cells mated with the target were sequenced in that replicate, which points to weak or no binding.

For T28S/S31Q/G61S/R100E, the assay gave 0.13, -0.36, 0.13, -0.08, -0.32, -0.16 (mean -0.11; controls 0 of 18).
For T28D/G61A/R100K/A101T, the assay gave -0.58, -0.35, -0.33, -0.65, -0.58, -0.11 (mean -0.43; controls 0 of 18).
For T28D/R100K/S107M, the assay gave -0.28, -0.13, 0.64, nd, nd, nd (mean 0.08; controls 0 of 18).
For R56K/R100Q/A101V/S107L, the assay gave 0.39, 0.58, -0.03, 0.14, 0.82, 0.09 (mean 0.33; controls 0 of 18).
For T28E/S63D/R100V/A101T, the assay gave 1.02, 0.14, 0.63, 0.06, 0.22, 0.65 (mean 0.45; controls 0 of 18).
For T28S/S31A/R56K/A101T, the assay gave 0.21, 0.24, -0.10, 0.45, 0.99, 0.29 (mean 0.35; controls 0 of 18).
For T28S/R56K/G61A/A101E, the assay gave -0.07, -0.42, -0.19, -0.51, -0.49, -0.14 (mean -0.30; controls 0 of 18).
For T28S/S31E/A101E/S107A, the assay gave -0.56, 1.00, -0.40, -0.66, -0.81, -0.16 (mean -0.27; controls 0 of 18).
For T28E/G61Q/A101V, the assay gave 1.19, 1.87, 0.96, 1.13, 1.33, nd (mean 1.30; controls 1 of 18).
For T28D/R56K/S63A/A101T, the assay gave nd, 1.59, 0.03, nd, -0.23, 0.22 (mean 0.40; controls 0 of 18).
For T28S/G61I/R100K/A101L, the assay gave nd, nd, nd, nd, nd, 0.96 (controls 0 of 18).
For T28S/S31A/A101T/S107A, the assay gave 0.42, 1.27, 1.28, 0.40, 0.64, 0.24 (mean 0.71; controls 0 of 18).
For T28D/S63Q/R100K/A101T, the assay gave -0.15, 0.10, 0.02, -0.13, -0.35, 0.18 (mean -0.05; controls 0 of 18).
For R100H/A101E, the assay gave 0.23, 0.25, 0.03, 0.11, 0.10, -0.16 (mean 0.09; controls 0 of 18).
For T28S/G61Q/R100V/A101S, the assay gave 1.59, 2.16, 0.75, 0.54, 3.64, 1.87 (mean 1.76; controls 0 of 18).
For T28D/R100E/S107N, the assay gave 0.54, 1.11, 1.12, 0.48, 0.66, 0.86 (mean 0.80; controls 1 of 18).
For R56K/R100Q/A101T/S107L, the assay gave nd, 0.61, nd, -0.18, nd, nd (mean 0.21; controls 0 of 18).
For T28D/R100K/S107W, the assay gave 1.95, 2.55, 1.38, 1.70, 2.35, nd (mean 1.99; controls 0 of 18).
For R100K/A101E/S107N, the assay gave 0.98, 1.93, 1.89, 0.82, 0.62, 0.22 (mean 1.08; controls 1 of 18).
For T28N/S63D/R100Q, the assay gave 1.72, 1.50, 2.06, 1.84, 2.00, 1.17 (mean 1.71; controls 0 of 18).
For G103V/S107Q, the assay gave nd, nd, nd, nd, nd, nd (controls 0 of 18).
For T28S/R56Q/G61K/A101T, the assay gave 0.24, 0.05, 0.07, 0.24, 0.15, 0.57 (mean 0.22; controls 0 of 18).
For T28D/G61T/R100N, the assay gave 0.84, 0.69, 0.90, 0.50, 0.37, 0.73 (mean 0.67; controls 0 of 18).
For T28S/S31E/A101S/S107T, the assay gave 0.27, -0.11, 0.06, 0.10, 0.14, 0.05 (mean 0.08; controls 0 of 18).
For T28S/G61V/R100S/A101Q, the assay gave 0.26, -0.02, 0.60, 0.66, 0.10, 0.40 (mean 0.34; controls 0 of 18).
For T28E/G61R/A101T, the assay gave 0.47, 0.89, 0.46, 1.06, 2.79, 0.61 (mean 1.04; controls 0 of 18).
For T28D/G61S/R100A, the assay gave 0.18, 0.48, 0.59, 0.44, 1.42, 1.80 (mean 0.82; controls 0 of 18).
For T28S/S31M/F59A, the assay gave 0.10, 0.25, -0.07, 0.18, 0.26, 0.27 (mean 0.17; controls 0 of 18).
For T28S/R56K/R100N, the assay gave -0.23, nd, -0.02, nd, nd, nd (mean -0.13; controls 0 of 18).
For T28S/S31E/G61E/A101T, the assay gave 0.72, 0.40, 0.68, 0.18, 0.67, 0.74 (mean 0.57; controls 1 of 18).
For T28D/A101E/S107F, the assay gave 0.35, 0.36, 0.07, -0.01, 0.26, 0.38 (mean 0.23; controls 0 of 18).
For T28S/G61S/R100K/S107T, the assay gave 1.35, 0.34, -0.05, 0.11, 0.29, 0.39 (mean 0.41; controls 0 of 18).
For T28N/S31T/A101T, the assay gave 0.25, 0.39, -0.14, 1.02, 0.50, 1.33 (mean 0.56; controls 0 of 18).
For R56K/G61S/R100K/S107L, the assay gave 1.25, 1.39, 0.20, nd, nd, nd (mean 0.95; controls 0 of 18).
For T28Q/G61D/R100Q/A101T, the assay gave 0.32, 0.45, 0.35, 0.52, 0.28, 0.18 (mean 0.35; controls 0 of 18).
For T28E/R100V/A101K, the assay gave nd, nd, nd, nd, nd, 0.83 (controls 0 of 18).
For T28N/R100N/A101V, the assay gave 0.25, 0.50, 0.17, 0.26, -0.26, 0.07 (mean 0.16; controls 0 of 18).
For T28E/F59A/G61Q, the assay gave -0.23, 0.36, -0.13, -0.10, -0.11, 0.13 (mean -0.01; controls 1 of 18).
For T28H/F59A/R100Q, the assay gave nd, 2.51, 1.32, nd, 0.58, 0.64 (mean 1.26; controls 0 of 18).
For R100V/A101E, the assay gave nd, 0.60, 0.72, 0.62, nd, 0.87 (mean 0.70; controls 0 of 18).
For G61K/R100D, the assay gave 2.00, 0.60, 0.96, 1.51, 0.45, 1.07 (mean 1.10; controls 0 of 18).
For G26N/T28D/A101T, the assay gave nd, 1.35, 1.20, 1.51, 1.90, 1.37 (mean 1.47; controls 0 of 18).
For T28N/F59A/A101N, the assay gave 0.68, 0.51, 0.09, 0.42, 0.22, 0.59 (mean 0.42; controls 0 of 18).
For T28E/R100S/A101I, the assay gave 0.34, 0.04, 0.21, 0.25, 0.55, 0.77 (mean 0.36; controls 0 of 18).
For T28N/G61K/R100K, the assay gave nd, nd, nd, nd, nd, nd (controls 0 of 18).
For G61A/R100K/A101V/S107T, the assay gave 0.67, 0.54, 0.70, 0.58, 0.22, 0.57 (mean 0.55; controls 1 of 18).
For T28S/S63A/R100K/A101I, the assay gave 1.64, 2.11, 1.77, 1.42, 1.91, 1.56 (mean 1.73; controls 0 of 18).
For R56M/G61S/A101V, the assay gave nd, 1.41, 1.03, 1.41, 2.15, 1.94 (mean 1.59; controls 1 of 18).

Excerpt, the first 4 entries:

T28S/S31Q/G61S/R100E: 0.13, -0.36, 0.13, -0.08, -0.32, -0.16 (mean -0.11; controls 0 of 18).
T28D/G61A/R100K/A101T: -0.58, -0.35, -0.33, -0.65, -0.58, -0.11 (mean -0.43; controls 0 of 18).
T28D/R100K/S107M: -0.28, -0.13, 0.64, nd, nd, nd (mean 0.08; controls 0 of 18).
R56K/R100Q/A101V/S107L: 0.39, 0.58, -0.03, 0.14, 0.82, 0.09 (mean 0.33; controls 0 of 18).

Empty control strains, which show no peptide, gave a signal in 1% of pairings with all heavy chain designs; the median was 2.08 and 95% of these signals were weaker than 0.84. No background was subtracted. For each scFv, signals with the empty controls are counted beside the result. The authors averaged sequences with at least three values out of six and counted those with two or fewer as poor binders. A sequence measured in both rounds can read differently, since the two assays cover different ranges.